This is an account of results in US8993718B2, “Methods and compositions for detecting and modulating O-glycosylation” (President and Fellows of Harvard College, priority 2007, dated 2015).

Protein sequences, listed by entry. Tags and fused reporters are not part of them. Residues count along the entry.
UniProt O15294, 382-1046: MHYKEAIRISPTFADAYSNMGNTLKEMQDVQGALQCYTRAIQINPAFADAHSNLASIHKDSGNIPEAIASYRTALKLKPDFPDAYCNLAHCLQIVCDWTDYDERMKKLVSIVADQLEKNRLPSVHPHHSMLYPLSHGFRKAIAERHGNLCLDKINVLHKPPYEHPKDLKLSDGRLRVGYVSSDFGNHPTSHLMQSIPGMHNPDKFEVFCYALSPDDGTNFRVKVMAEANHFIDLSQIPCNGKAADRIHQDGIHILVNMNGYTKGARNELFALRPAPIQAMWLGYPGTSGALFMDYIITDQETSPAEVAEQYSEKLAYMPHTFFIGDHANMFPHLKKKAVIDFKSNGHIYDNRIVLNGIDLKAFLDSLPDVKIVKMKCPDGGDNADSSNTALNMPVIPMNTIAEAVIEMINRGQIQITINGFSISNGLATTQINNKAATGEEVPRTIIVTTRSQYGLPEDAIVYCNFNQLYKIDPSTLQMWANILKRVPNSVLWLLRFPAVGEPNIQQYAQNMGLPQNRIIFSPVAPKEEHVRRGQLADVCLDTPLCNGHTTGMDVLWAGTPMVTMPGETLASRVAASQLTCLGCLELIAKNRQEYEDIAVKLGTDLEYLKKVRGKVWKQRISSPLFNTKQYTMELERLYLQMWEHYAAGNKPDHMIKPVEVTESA

This assay concerns the target sOGT (Homo sapiens, UniProt O15294). Description: Radiometric secondary assay (hit validation, UDP-14C-GlcNAc, CK23K polypeptide). The conditions noted are these: 250 μM CK23K polypeptide, 6.25 μM UDP-14C-GlcNAc, eight point curve. The protocol:
To validate the hits from the high throughput screen, a radiometric secondary assay was used (adapted from that described in described in PCT Application PCT/US2007/008806, which was filed Apr. 11, 2007). […] The CK23K polypeptide concentration was set at 250 μM, which is roughly 1.1× the Km value. The logic behind this was to mimic as much as possible the sub-Kn, FRET-peptide concentration present in the primary assay, so that polypeptide competitive inhibitors would not be swamped out by the higher CK23K concentrations used to screen the donor displacement assay. In addition, the buffer used in high throughput screening, which had no NaCl and contains detergents, was used in secondary screening. […] A relationship existed between hit potency in the primary and secondary assay (FIG. 8), though there seemed to be a group of structurally unrelated weak validated inhibitors (IC50 125-250 μM) that inhibited strongly in the primary assay.
Hits were examined using the secondary assay as described in PCT Application PCT/US2007/008806, which was filed Apr. 11, 2007, with minor modifications. […] Reactions were run for 20-30 minutes, then spotted on Whatman P81 phosphocellulose discs, washed three times for five minutes in 1% phosphoric acid, and counted by liquid scintillation counting. […]

`CCOC(=O)C(C(C)C)C(N)Cc1ccc(F)cc1` (stereo not shown): the IC50 is 0.9 µM. This lies in the sub-micromolar range.

Usually IC50 stands for the concentration that inhibits the measured activity by half. Read a low IC50 as greater potency in that assay.
